Measurements as given in article PMC11157767 (Molecular Cancer, 2024).

System: TFG-MET allograft tumors
Assay: TFG-MET allograft preclinical trial in CD1 mice, Survival cohort (survival, BLI, body weight)
Type: in vivo, mouse
Conditions: Murine allografts; day 77; drug + RT

SMILES: C[C@@H](Oc1cc(-c2cnn(C3CCNCC3)c2)cnc1N)c1c(Cl)ccc(F)c1Cl [Crizotinib]
- BLI signal, individual mice: 1.16E+05
